Source: US12391677B2, “Thyroid hormone receptor agonists” (INVENTISBIO CO., LTD., priority 2018, dated 2025)

Amino acid sequences for entries named in this document (tags omitted). A change or cut given only in a name is not applied to a line headed by its entry. Residues count along the entry.
UniProt P10828, 217-461 limits assumed: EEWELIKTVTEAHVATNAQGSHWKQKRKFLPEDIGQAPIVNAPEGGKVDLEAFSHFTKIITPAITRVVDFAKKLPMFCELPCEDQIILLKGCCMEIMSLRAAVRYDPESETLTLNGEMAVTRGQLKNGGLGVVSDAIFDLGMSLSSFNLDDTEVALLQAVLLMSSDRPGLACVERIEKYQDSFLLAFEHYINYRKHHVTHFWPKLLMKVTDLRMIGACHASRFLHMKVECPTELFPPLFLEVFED

Legend:
[1] = target: ligand binding domain of thyroid hormone receptor beta (Homo sapiens (Human), UniProt P10828); assay: Thyroid hormone receptor TR-FRET binding assay (TRβ LBD); conditions: read-out: TRβ EC50, TRβ LBD 2 nM
[2] = Human hepatocyte clearance study; conditions: human hepatocytes
[3] = target: TRβ-GAL4 binding domain chimeric receptors (Homo sapiens (Human), UniProt P10828); assay: Thyroid hormone receptor cell assay (GAL4 luciferase reporter in HEK293-LUC cells); assay type: cell-based; conditions: read-out: TRβ EC50

N#Cc1nn(-c2cc(Cl)c(Oc3cc(Cc4ccccc4)c(=O)[nH]n3)c(Cl)c2)c(=O)[nH]c1=O
EC50 [1]: 0.64 µM | Human In vitro Clint [2]: 4.11 μL/min/10^6 cells | Human In vitro T1/2 [2]: 5.62 h | Human Hepatocyte Remaining Percentage @ 120 min ([2]; 120 min): 76% | Human Scale-up Clint ([2]; scaling factor 2544.3): 10.5 mL/min/kg | EC50 [3]: 12.5 µM
